Among the data in article PMC7730438, “Generation of KS-58 as the first K-Ras(G12D)-inhibitory peptide presenting anti-cancer activity in vivo” (Scientific Reports, 2020) are EC50 values, retold here.

Amino acid sequences for entries named in this document (tags omitted). Residues count along the entry.
UniProt P01116, 1-188 isoform P01116-2: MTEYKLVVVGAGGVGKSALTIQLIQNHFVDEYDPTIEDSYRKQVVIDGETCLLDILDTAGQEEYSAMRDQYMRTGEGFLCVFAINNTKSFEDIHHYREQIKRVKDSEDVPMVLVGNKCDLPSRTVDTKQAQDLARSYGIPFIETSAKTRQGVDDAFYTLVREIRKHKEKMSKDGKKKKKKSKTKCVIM

The target in test [1] is T1, K-Ras(WT) (Homo sapiens, UniProt P01116).
T1 construct: purchased Abcam ab156968
In words: Cell-free ELISA binding of biotin-labeled peptides. How it is done: (§1) Recombinant human K-Ras(G12D) (ab268712), K-Ras(G12V) (ab268713), K-Ras(G12C) (ab268711), K-Ras(G13D) (ab271580), K-Ras(Q61H) (ab96817), K-Ras(WT) (ab156968), N-Ras(WT) (ab268821), and H-Ras(WT) (ab93949) proteins were purchased from Abcam (Cambridge, UK). Ras protein was directly coated to wells of Nunc MaxiSorp microplate in PBS containing 0.01 mM GDP and 10 mM MgCl2 overnight at 4 °C. The wells were blocked in PBS containing 0.1% bovine serum albumin (BSA) for 0.5 h at 25 °C.
(§2) For binding assays of biotin-labeled peptides, Ras protein (25 μg/mL) was coated to wells of Nunc MaxiSorp 96-well clear plate (439,454) as described above. After washing the wells three times using PBS containing 0.1% Tween20 (PBST), biotin-labeled peptides in PBS containing 0.025% BSA, 0.01 mM GDP, and 10 mM MgCl2 were added to the wells. After 0.5 h incubation at 25 °C, the wells were washed with PBST three times. Bound biotin-labeled peptides were detected using horseradish peroxidase (HRP)-conjugated streptavidin (SA) (ab7403, Abcam) and 1-Step Ultra TMB-ELISA Substrate Solution (34028, Thermo Fisher Scientific). The amounts of HRP in the wells were measured by absorbance to 450 nm.
Background: An ELISA detects its analyte on a solid surface through an enzyme-linked reagent.

The target of test [2] is T2, N-Ras(WT) (Homo sapiens, UniProt P01111).
T2 construct: purchased Abcam ab268821
Briefly: Cell-free ELISA binding of biotin-labeled peptides. How it is done:
as §1, §2

pEC50: −log10 of the molar value.

With `CCCCCCC[C@@H]1NC(=O)[C@@H]2CSCCCSC[C@@H](NC(=O)[C@H](Cc3c[nH]c4ccccc34)NC(=O)[C@H](CCCCNC(=O)CCCCCNC(=O)CCCC[C@@H]3SC[C@@H]4NC(=O)N[C@@H]43)NC(=O)[C@H](CC(=O)O)NC(=O)[C@H](Cc3ccc(F)cc3)NC(=O)[C@H](CO)NC1=O)C(=O)NCCC(=O)N1CCC[C@H]1C(=O)N[C@@H](CCCC)C(=O)N2` [Biotin-KS-58, c[βAla-Pro-Nle-c(Cys-Anon-Ser-4fF-Asp-Lys(εN-biotin)-Trp-^DCys)]], the figures for the pEC50 in test [1] and in test [2] were 7.10 and 7.22, respectively.

In general, pEC50 refers to −log10 of the EC50, conventionally taken in molar units.
